Measurements taken from patent publication US20050002552A1, “Automated in vitro cellular imaging assays for micronuclei and other target objects” (Pfizer Inc, priority 2003, published 2005).

System: Chinese hamster ovary cells

Compound: CO[C@@]12[C@H](COC(N)=O)C3=C(C(=O)C(C)=C(N)C3=O)N1C[C@@H]1N[C@@H]12 [Mitomycin C]
- Auto MN % (micronuclei frequency, automated method of this invention): 3.3%
- Manual MN % (micronuclei frequency, number of micronuclei divided by number of binucleated cells, manual scoring): 3%
- Auto MN % (micronuclei frequency, automated method of this invention) (0.05 mcg/ml, 24 hours, Cytochalasin B protocol, independent duplicate wells, automated scoring): 2.7%
- Auto MN % (micronuclei frequency, automated method of this invention) (0.05 mcg/ml, 24 hours, Cytochalasin B protocol, independent duplicate wells, automated scoring, listed as mitomycin C): 3.3%
- Manual MN % (micronuclei frequency, number of micronuclei divided by number of binucleated cells, manual scoring) (0.05 mcg/ml, 24 hours, Cytochalasin B protocol, independent duplicate wells, manual scoring): 3% and 3.8%

“And” between values parts separate entries of the source, which are not always exact repeats. Equal entries are not always repeated. Where two headings read alike, the source gives them in different places.
